US7253194B2, “Compounds and inhibitors of phospholipases” (The University of Queensland, priority 2000, dated 2007)

By UniProt entry, the sequences of proteins in these tests, tags left out. Residues count along the entry.
UniProt P14555, 21-144 limits assumed: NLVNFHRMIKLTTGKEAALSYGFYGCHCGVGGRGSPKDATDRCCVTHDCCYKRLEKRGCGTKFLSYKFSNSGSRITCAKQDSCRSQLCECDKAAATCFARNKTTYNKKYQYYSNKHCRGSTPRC

Biological target: human non-pancreatic sPLA2 (type IIa) (Homo sapiens, UniProt P14555)
Assay: Assay for inhibition of human non-pancreatic sPLA2 (type IIa), mixed micelle colorimetric assay
Assay type: biochemical
Conditions: read-out: IC50, inhibition of human secretary PLA2; recombinant hIIa-PLA2; substrate diheptanoyl thio-phosphatidyl choline, DTNB detection; IC50 from Dixon plot extrapolation

- IC50: 247 nM
Structure (SMILES): O=C(O)CC[C@@H](Cc1ccc(OCc2cccnc2)cc1)NC(=O)CCCCCCc1ccccc1
